Earlier results in paper PMC4529489.

Sequences of proteins named here, by UniProt entry; tags and fusion partners are left off. Residues count along the entry.
UniProt Q15819, 2-145: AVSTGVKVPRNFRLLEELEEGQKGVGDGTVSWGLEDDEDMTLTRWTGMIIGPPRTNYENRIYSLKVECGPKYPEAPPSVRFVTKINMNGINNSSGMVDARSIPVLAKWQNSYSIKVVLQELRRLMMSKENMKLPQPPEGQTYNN

Target: Ube2V2 (Homo sapiens) (UniProt Q15819)
Conditions: cited from earlier work

Q: Which Kd does the source give for Ubiquitin (from UniProt P0CG47) here?
A: 30 µM
